Reference: publication PMC5908791 (2018)
Blank lines part the entries; values can stand above or below the binder they belong to.

Amino acid sequences for entries named in this document (tags omitted). Residues count along the entry.
UniProt O15524, 53-211, chain 1 of 3: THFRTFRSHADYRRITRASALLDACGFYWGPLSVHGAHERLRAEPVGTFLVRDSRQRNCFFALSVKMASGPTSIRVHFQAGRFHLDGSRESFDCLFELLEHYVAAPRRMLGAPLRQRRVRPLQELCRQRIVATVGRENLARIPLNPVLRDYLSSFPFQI

Key:
[1] = molecular target: T1, human SOCS1 (residues 53-211) in complex with Elongins B and C (human, UniProt O15524 53-211; Q15370 1-118; Q15369 17-112); test: ITC; pY1054/pY1055
[2] = molecular target: T1, human SOCS1 (residues 53-211) in …; test: ITC; pY1007/pY1008
[3] = molecular target: T1, human SOCS1 (residues 53-211) in …; test: ITC; IFNαR1 (pY481)
[4] = molecular target: T1, human SOCS1 (residues 53-211) in …; test: ITC; pY980/pY981

Binder: VLPQDKEYYKVKEPGE (doubly-phosphorylated (phosphotyrosines)) [JAK2 activation loop phosphopeptide]
Kd [2]: 615 nM

Binder: LLPLDKDYYVVREPGQ (doubly-phosphorylated (phosphotyrosines)) [JAK3 activation loop phosphopeptide]
Kd [4]: 210 nM

Results, then the binder that gave them:

Kd [1]: 346 nM
Binder: VPEGHEYYRVREDGD (doubly-phosphorylated (phosphotyrosines)) [TYK2 activation loop phosphopeptide]

Kd [3]: 686 nM
Binder: RCINYVFFPSL (phosphotyrosine) [one phosphopeptide from the IFN-α receptor (site within the Box1/2 motif)]
